# Results reported in PubChem BioAssay AID504692 (The Scripps Research Institute Molecular Screening Center, 2011).
# Chains of the proteins cited; added tags and fusions are not shown.
# UniProt P47898, whole entry, looked up: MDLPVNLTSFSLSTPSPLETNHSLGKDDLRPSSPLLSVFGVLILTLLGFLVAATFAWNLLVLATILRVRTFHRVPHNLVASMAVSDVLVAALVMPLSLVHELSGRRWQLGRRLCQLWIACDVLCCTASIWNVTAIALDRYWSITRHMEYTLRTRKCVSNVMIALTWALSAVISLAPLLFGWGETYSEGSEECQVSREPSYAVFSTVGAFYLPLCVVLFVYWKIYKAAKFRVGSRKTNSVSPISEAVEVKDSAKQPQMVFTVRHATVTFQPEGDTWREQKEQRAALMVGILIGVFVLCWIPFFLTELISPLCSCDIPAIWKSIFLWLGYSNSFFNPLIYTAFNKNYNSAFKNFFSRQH
# Only a part is listed here, and it is no random draw. Activity calls are given as the source filed them. No stated cut-off is given here; in the data, active means activation mostly above about 9.5% (no sharp cut-off); inactive means mostly below about 7.6%.
# Biological target: 5-hydroxytryptamine receptor 5A (Homo sapiens) (UniProt P47898)
# Test: HTR5A agonists in luminescence cell assay, primary screen, counter-screen for OPRM1-OPRD1 heterodimer agonist project, full-deck HTS (AID 504692);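 further: 0% = cells with vehicle only and 100% = reference agonist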
# Settings: cell-based, at 9.3 µM, stronger effect = higher value
row,Structure (SMILES),activation
1,CCOC(=O)Nc1cccc([As](=O)(O)O)c1,inactive: -1.05%
2,COC(=O)C[C@H](NC(=O)Cn1cnc2c(OCc3ccccc3)ncnc21)C(=O)OC,inactive: 1.26%
3,Cn1c(=O)[nH]c(=O)c2c1ncn2CCN1CCCCC1,inactive: 0.32%
4,O=C(Cn1c(CO)nc2ccccc21)Nc1ccc2c(c1)OCCCO2,inactive: 3.07%
5,Cc1ccc(NC(=O)Cn2c(=S)[nH]c3ccccc32)cc1,inactive: 0.99%
6,Cn1c(=O)c2c(ncn2CC(=O)NCc2cccnc2)n(C)c1=O,inactive: 2.56%
7,COc1cc(NC(=O)[C@H](C)NC(=O)N2CCn3c2nc2ccccc23)cc(OC)c1,inactive: 0.25%
8,NNC(=O)Cn1c(-c2ccccn2)nc2ccccc21,inactive: 4.04%
9,O=C(CCCCCNC(=O)N1CCn2c1nc1ccccc12)NCCc1ccccc1,inactive: 1.88%
10,Cc1ccc2c(c1)[C@@H]1CN(C)CC[C@@H]1N2S(=O)(=O)c1ccc([N+](=O)[O-])cc1,inactive: 9.35%
11,COc1ccc(OCC(=O)N2c3ccc(C)cc3C3CN(C)CCC32)cc1 (centres undefined),inactive: 0.62%
12,CCC[n+]1cn(/C(C(=S)Nc2cccc(Cl)c2C)=C(/[O-])c2ccc(OC)c(OC)c2)c2ccccc21,inactive: -6.29%
13,Cn1c(=O)c2c(ncn2CC(=O)N2CCc3ccccc3C2)n(C)c1=O,inactive: 2.27%
14,CCC(=O)Nc1nnc(/C=C/c2ccccc2)s1,inactive: -1.42%
15,O=C(Cn1cnc2c(OCc3ccccc3)ncnc21)NCCCc1ccccc1,active: 10.2%
16,COCCN1CCn2c(nc3cc(NC(=O)c4ccc(OC)cc4)ccc32)C1,inactive: -0.75%
17,CCC(C)c1ccc2oc(-c3ccc(NC(=O)Cn4cnc5c(=O)n(C)c(=O)n(C)c54)cc3)nc2c1 (centres undefined),inactive: 2.44%
18,CCS(=O)(=O)c1nc2ccccc2n1CC(=O)N1CCOCC1,inactive: -0.72%
19,O=C(Cn1c(CC(=O)N2CCOCC2)nc2ccccc21)Nc1ccc2c(c1)OC(F)(F)O2,inactive: 3.16%
20,O=[N+]([O-])c1ccc(Nc2ccc(Oc3ccc([N+](=O)[O-])cc3[N+](=O)[O-])cc2)c([N+](=O)[O-])c1,inactive: -0.74%
21,Cc1cc(SC(NC=O)C(Cl)(Cl)Cl)ncn1 (centres undefined),inactive: -0.78%
22,COc1ccccc1C(=O)OCCNC(=O)Cn1cnc2c1c(=O)n(C)c(=O)n2C,inactive: 0.09%
23,O=P(Nc1ccccn1)(c1cccc2ccccc12)c1cccc2ccccc12,inactive: -0.38%

row,Structure (SMILES),activation
1,CCc1nc2ccccc2n1CC(=O)N1CCN(S(=O)(=O)c2cccc(C(F)(F)F)c2)CC1,inactive: -2.07%
2,C/C(=N\NC(=O)Cn1c(C)nc2ccccc21)c1cccs1,inactive: -1.61%
3,O=C(Cn1c(CCCO)nc2ccccc21)Nc1ccccc1-c1ccccc1,inactive: 2.22%
4,CC1CN(Cc2nc3c(c(=O)n(C)c(=O)n3C)n2CCN2CCOCC2)CC(C)O1 (centres undefined),inactive: 0.49%
5,CCNC(=S)N1CCn2c(nc3ccccc32)C1,inactive: -3.06%
6,CC(C)(C)NC(=O)Cn1c(SCC(=O)NC2CCCCC2)nc2ccccc21,inactive: 3.81%
7,CCCNC(=O)Cn1c(=O)n(C)c2ccccc21,inactive: -1.18%
8,COC(=O)c1ccccc1NC(=O)Cn1cnc2c1c(=O)n(C)c(=O)n2C,inactive: 2.76%
9,Cn1c(=O)c2c(ncn2CC(=O)N/N=C/c2ccc(Br)s2)n(C)c1=O,inactive: -0.41%
10,Cn1c(=O)n(Cc2ccccc2)c(=O)c2c1nc1n2CCN1Cc1ccco1,inactive: -1.92%
11,CC1CCNP(=O)(N(CCCl)CCCl)O1 (centres undefined),inactive: -0.81%
12,COCC(=O)N(C)[C@H]1C[C@H]2c3cc(-c4ccccc4)ccc3CCN2C(=O)[C@H]1[C@H](C)O,inactive: -1.03%
13,O=C(C1CCN(S(=O)(=O)c2cccc3cccnc23)CC1)N1CCn2c1nc1ccccc12,inactive: -28.2%
14,C[C@H](O)[C@@H]1C(=O)N2CCc3ccc(N4CCN(C)CC4)cc3[C@@H]2C[C@@H]1N(C)C(=O)NC1CCCCC1,inactive: 1.86%
15,Cc1ccc(N(CC(=O)N2CCn3c2nc2ccccc23)S(=O)(=O)c2c(C)n[nH]c2C)cc1,inactive: 8.18%
16,Cc1cc(C)cc(N(CC(=O)N2CCn3c2nc2ccccc23)S(=O)(=O)c2c(C)noc2C)c1,inactive: 9.96%
17,CCCCC(=O)Nc1nnc(/C=C/c2ccc(OC)cc2)s1,inactive: 2.54%
18,CC(C)C[C@H](NC(=O)N1CCn2c1nc1ccccc12)C(=O)NCCc1ccccc1,inactive: -0.54%
19,O=C(Cn1c(C(F)(F)F)nc2ccccc21)NCCCN1CCOCC1,inactive: 4.79%
20,Nc1ncnc2c1ncn2CCNCCc1ccccc1,inactive: 10.2%
21,CCOC(=O)Nc1ccc([As](=O)(O)O)c(O)c1,inactive: -2.78%
22,Cc1ccc(S(=O)(=O)c2nc(-c3ccccc3Cl)oc2N(C)C2CCN(C)CC2)cc1,inactive: 2.74%
23,Cc1ccc2c(c1)C1CN(C)CCC1N2C(=O)COc1ccccc1F (centres undefined),inactive: -2.68%

row,Structure (SMILES),activation
1,COc1ccc(S(=O)(=O)N2CCn3c2nc2ccccc23)cc1,inactive: -4.8%
2,CCCNC(=O)CC1C(=O)N(Cc2ccccc2)C(C)c2nc3ccccc3n21 (centres undefined),inactive: 1.63%
3,Cc1ccc(-c2csc(N3CCC[C@@H]3C(=O)NCCn3c(C(F)(F)F)nc4ccccc43)n2)cc1,active: 11.3%
4,CSc1nc(N)nc2c1ncn2CC(=O)NCc1ccccc1,inactive: 5.39%
5,CC(C)[C@H](NC(=O)N1CCn2c1nc1ccccc12)C(=O)N1CCCCC1,inactive: 4.93%
6,CCCN(C(=O)Cn1c(C(F)(F)F)nc2ccccc21)C1CCS(=O)(=O)C1 (centres undefined),inactive: -4.46%
7,CC(=O)Nc1ccc(NC(=O)Cn2c(CC(=O)N3CCCC3)nc3ccccc32)cc1,inactive: 3.31%
8,Cc1cc(SC(NC(=O)c2ccccc2)C(Cl)(Cl)Cl)nc(C(C)C)n1 (centres undefined),inactive: 1.46%
9,COc1ccc(/C=N/c2nc3ccccc3n2CCN2CCCCC2)cc1OC,inactive: 4.47%
10,Cc1ccc2c(c1)C1CN(C)CCC1N2C(=O)COc1ccc(N(C)C(=O)C(C)(C)C)cc1 (centres undefined),inactive: 3.62%
11,Nc1ncnc2c1ncn2CCN1CCOCC1,inactive: 3.05%
12,CCN(CC)CCNC(=S)N1CCn2c(nc3ccccc32)C1,inactive: -5.7%
13,CC(C)[C@H](NC(=O)N1CCn2c1nc1ccccc12)C(=O)NC1CCCCC1,inactive: -2.57%
14,Cc1ccc2c(c1)C1CN(C)CCC1N2C(=O)c1cccs1 (centres undefined),inactive: 0.6%
15,CC(=O)Nc1ccc(C(=O)CSc2nc3ccccc3n2CC(=O)N2CCCC2)cc1,inactive: -0.71%
16,O=C(Nc1nc2ccccc2n1CCN1CCCC1)c1ccc(Cl)cc1,inactive: 2.38%
17,CC1c2nc3ccccc3n2C(CC(=O)NCc2ccccn2)C(=O)N1Cc1ccccc1 (centres undefined),inactive: 2.65%
18,Cc1ccc2c(c1)C1CN(C)CCC1N2C(=O)COc1ccc(S(=O)(=O)N2CCOCC2)cc1 (centres undefined),inactive: -0.89%
19,O=C(Cn1c(-c2cscn2)nc2ccccc21)Nc1cc(F)ccc1F,inactive: -0.75%
20,Cc1ccc2c(c1)C1C[N+](C)(CC(=O)c3ccc(Cl)cc3Cl)CCC1N2C(=O)c1ccc(F)cc1 (centres undefined),inactive: 5.94%
21,CCOC(=O)c1ccc(NC(=O)C(C)(CCl)SC)cc1 (centres undefined),inactive: -1.03%
22,CC(C)N(C(=O)Cn1c(Cl)nc2ccccc21)C(C)C,inactive: -1.36%
23,CCN(CC)C(=O)Cn1cnc2c1c(=O)n(C)c(=O)n2C,inactive: -0.92%

row,Structure (SMILES),activation
1,O=C(c1ccccc1Cl)N1CCn2c1nc1ccccc12,inactive: -3.41%
2,COc1ccc(CCNC(=O)[C@H](CC(C)C)NC(=O)N2CCn3c2nc2ccccc23)cc1OC,inactive: -1.21%
3,O=C1Cn2c(nc3ccccc32)-c2ccccc2N1,inactive: 3.11%
4,CCC(NC(=O)Cn1cnc2c(=O)n(C)c(=O)n(C)c21)c1ccccc1 (centres undefined),inactive: 4.4%
5,CCCCOc1ccccc1NC(=O)Cn1c(-c2nonc2N)nc2ccccc21,inactive: 0.82%
6,O=C(OC1CN2CCC1CC2)c1cccc([N+](=O)[O-])c1 (centres undefined),inactive: 0.02%
7,CCC(C)[C@H](NC(=O)N1CCn2c1nc1ccccc12)C(=O)NCC1CCCO1 (some centres undefined),inactive: -1%
8,CCc1cccc(C)c1N(C(=O)Cn1c(=O)[nH]c2ccccc21)C(C)COC (centres undefined),inactive: -4.37%
9,COc1cccc(CNc2nc3ccccc3n2CCN2CCCCC2)c1OC,inactive: 1.97%
10,CSc1nc(N)nc2c1ncn2CC(=O)N1CCN(Cc2c(C)cc(C)cc2C)CC1,active: 9.34%
11,Cn1c(=O)c2c(nc(CN3CCOCC3)n2CCN2CCOCC2)n(C)c1=O,inactive: 4.9%
12,CCN(CC)CCn1c(NC(=O)c2ccc(C(F)(F)F)cc2)nc2ccccc21,inactive: 2.56%
13,C[C@H](O)[C@@H]1C(=O)N2CCc3ccc(N4CCN(C)CC4)cc3[C@@H]2C[C@@H]1N(C)C(=O)c1ccc(C#N)cc1,inactive: -0.15%
14,CC1Cc2ccccc2N1C(=O)Cn1cnc2ccccc21 (centres undefined),inactive: 4.35%
15,O=S(=O)(Nc1ccc2c(c1)nc1n2CCN(Cc2ccccc2)C1)c1ccc(F)cc1,inactive: 2.18%
16,CCN(CC)C(=O)Cn1c(=O)n(Cc2ccccc2Cl)c2c1c(=O)n(C)c(=O)n2C,inactive: 5.45%
17,Cc1nc2ccccc2n1CCN1CCOCC1,inactive: 0.97%
18,CSc1nc2ccccc2n1CC(=O)Nc1ccccc1,inactive: 0.98%
19,Cc1ccc(NC(=O)Cn2cnc3ccccc32)cc1C,inactive: -3.47%
20,CCC(C)[C@H](NC(=O)N1CCn2c1nc1ccccc12)C(=O)NCc1ccccc1 (some centres undefined),inactive: -3.87%
